Consider one substance from patent publication US20240293349A1, “USE OF AN RXR AGONIST IN TREATING DRUG RESISTANT HER2+ CANCERS” (Io Therapeutics, Inc., priority 2022, published 2024).

Format in all cases: cell-based
Assay [1] deals with HCC1954 human breast cancer cells. As to the kind of experiment: Inhibition of growth of a Her2-targeted agent resistant Her2+ cell line, DAPI nuclei count. Particulars: HCC1954, as compared to SkBr3. How it is done: HCC1954 is Her2^+ cancer cell line derived from a ductal carcinoma of the breast. As compared to the SkBr3 cell line used in Example 1 above, it is resistant to neratinib, lapatinib, and tucatinib. It is also resistant to anti-Her2 monoclonal antibodies, such as trastuzumab. […] Among Her2-amplified cell lines, HCC1954 is the most resistant to neratinib with an IC50>100 nM (compared to 7 nM SkBr3 or 20 nM AU565).
HCC1954 human breast cancer cells were seeded at 3000 cells per well in 96-well plates and treated with neratinib [1 or 10 nM] or DMSO (0.1%) in combination with IRX4204 [10, 100, or 1000 nM]. After 6 days of treatment, cells were fixed with 4% paraformaldehyde. Nuclei were stained with DAPI, imaged using ImageXpress® Pico (Molecular Devices) and counted using CellReporterXpress® Analysis Software (FIGS. 4A-B) Each data point represents six replicates. Statistical significance was determined using the Bonferroni-Dunn method of multiple t-tests. Each day was analyzed individually, without assuming a consistent SD (*p<0.01).
The experiment was also conducted using tucatinib or lapatinib in place of neratinib. […] The same general pattern of inhibitory effect is observed as with neratinib. […] As with neratinib, there is clearly a synergistic effect from the combination of these kinase inhibitors with IRX4204.

In a further assay the test system is SkBr3 cells. Put plainly: Inhibition of breast cancer cell growth, DAPI nuclei count. The settings on record: 6 days. The method, then: (§1) Two breast cancer cell lines, MCF7 and SkBr3, were cultured in the presence of 0, 10, 100, or 1000 nM IRX4204 and 0, 0.1, 1, or 10 μg/ml trastuzumab. MCF7 is an ER^+ PR^+ Her2^− cell line. SkBr3 is an ER^− PR^− Her2^+ cell line. Cells were plated in 96 well optical plates and IRX-4204 and trastuzumab were added 24 hours after cell plating. After a further 6 days, the cells were fixed with 4% paraformaldehyde in phosphate buffered saline (PBS). Nuclei were then stained with DAPI and imaged with the MetaXpress® microscope (Molecular Devices, San Jose, CA). Cell nuclei were segmented and then counted by defining pixel intensity over background and object size, using the algorithm of the MetaXpress® image analysis software. Experimental data points were performed at a minimum of quadruplicate, and results were reported as average cell count ±standard deviation (SD).
To assess if this improved growth inhibition effect was synergistic, the percent inhibition observed for the highest concentrations of the combined therapeutic agents was compared to the percent inhibition that would be expected for the combination based on the observed inhibition of the therapeutic agents used alone, if the agents acting independently, that is, without interaction (see Table 1). That is, PAE=(FE1+((1−FE1)×FE2))×100, where PAE is the predicted additive effect, FE1 is the observed fractional effect of a 1st treatment, and FE2 is the observed fractional effect of a 2nd treatment.
The experiment of Example 1 was repeated using the Her2 kinase inhibitors lapatinib or neratinib instead of trastuzumab at 0, 0.1, 1, or 10 nM. […]
To assess if this improved growth inhibition effect was synergistic, the percent inhibition observed for the highest concentrations of the combined therapeutic agents was compared to the percent inhibition that would be expected for the combination based on the observed inhibition of the therapeutic agents used alone, if the agents acting independently, that is, without interaction (see Tables 2-4).

The next assay has as its system MCF7 cells. The description is as above. Particulars: Her2− MCF7 cells; IRX4204 0-1000 nM, trastuzumab 0-10 μg/ml; 6 days. How it is done:
as §1
The experiment of Example 1 was repeated using the Her2 kinase inhibitors lapatinib or neratinib instead of trastuzumab at 0, 0.1, 1, or 10 nM. Additionally the panel of breast cancer cell lines was expanded to also include the ER^+ PR^+ Her2^+ cell line BT474 and the ER^+ PR^− Her2^+ cell line MDA-MB-361.

In the case of trastuzumab [Herceptin], the “resistance of the cell line to the agent used individually” value in assay [1] was “resistant”. The “growth inhibitory effect (FIG. 1B), in words” value with SkBr3 cells (Her2+ SkBr3 cells, IRX4204 0-1000 nM, trastuzumab 0-10 μg/ml) is “moderate growth inhibitory effect”. Also, in the assay on SkBr3 cells (SkBr3 cells, IRX4204 1000 nM, Herceptin 1000 ng, alone or combined), the “% Inhibition” value is 55.4%. The “DAPI Nuclei Count” value with SkBr3 cells (SkBr3 cells, IRX4204 1000 nM, Herceptin 1000 ng, alone or combined, control 25958) is reported as 11582. The “growth inhibitory effect (FIG. 1A), in words” value with MCF7 cells is on record as “neither agent had more than marginal effect”.

A word on the % Inhibition: it is the relative decrease from the control value, in per cent.
